pIC50: −log10 of the molar value. Where two headings read alike, the source gives them in different places.
Legend:
[1] = Carcinoma cell line panel, SRB-assay
Method: (§1) After incubation for 96 h, cytotoxicity was assessed using a standard SRB-assay.

[2] = Carcinoma cell line panel, SRB-assay; remark: listed apart in the source
Method: as §1

[3] = Carcinoma cell line panel, SRB-assay; remark: listed apart in the source
Method: as §1

[4] = Carcinoma cell line panel, SRB-assay; remark: listed apart in the source
Method: as §1

[5] = Carcinoma cell line panel, SRB-assay; remark: listed apart in the source
Method: as §1

[6] = Carcinoma cell line panel, SRB-assay; remark: listed apart in the source
Method: as §1

[7] = Carcinoma cell line panel, SRB-assay; remark: listed apart in the source
Method: as §1

[8] = Carcinoma cell line panel, SRB-assay; remark: listed apart in the source
Method: as §1

[9] = Carcinoma cell line panel, SRB-assay; remark: listed apart in the source
Method: as §1

[10] = Carcinoma cell line panel, SRB-assay; remark: listed apart in the source
Method: as §1

[11] = Carcinoma cell line panel, SRB-assay; remark: listed apart in the source
Method: as §1

[12] = Carcinoma cell line panel, SRB-assay; remark: listed apart in the source
Method: as §1

[13] = Carcinoma cell line panel, SRB-assay; remark: listed apart in the source
Method: as §1

[14] = Carcinoma cell line panel, SRB-assay; remark: listed apart in the source
Method: as §1

[15] = Serum stability of peptide vectors
Method: Test compounds were dissolved in cell-conditioned tissue culture medium (10% FCS in DMEM) at concentrations varying from 1 to 40 μM. The solutions were incubated at 37° C. and samples were withdrawn at intervals. After filtration, aliquots were analysed by RP-HPLC (using a photodiode array UV detector). Intact vectors were identified by reference to chromatograms obtained with authentic peptides and by DE MALDI-TOF analysis of appropriate peak fractions. […] The latter was chosen preferentially in order to replicate the conditions used for cytotoxicity assays on cell cultures.

Row | SMILES | pIC50 [1] | pIC50 [2] | pIC50 [3] | pIC50 [4] | pIC50 [5] | pIC50 [6] | pIC50 [7] | pIC50 [8] | pIC50 [9] | pIC50 [10] | pIC50 [11] | pIC50 [12] | pIC50 [13] | pIC50 [14] | Main metabolism product ([15]; 10% FCS in DMEM, 37° C., in all cases (also human or murine serum)) | half-life ([15]; bovine, serum)
1 | CC[C@H](C)[C@H](NC(=O)[C@H](CCCCN)NC(=O)[C@@H](NC(=O)[C@H](CCC(N)=O)NC(=O)[C@@H](N)CCCNC(=N)N)[C@@H](C)CC)C(=O)N[C@@H](Cc1c[nH]c2ccccc12)C(=O)N[C@@H](Cc1ccccc1)C(=O)N[C@@H](CCC(N)=O)C(=O)N[C@@H](CC(N)=O)C(=O)N[C@@H](CCCNC(=N)N)C(=O)N[C@@H](CCCNC(=N)N)C(=O)N[C@@H](CCSC)C(=O)N[C@@H](CCCCN)C(=O)N[C@@H](Cc1c[nH]c2ccccc12)C(=O)N[C@@H](CCCCN)C(=O)N[C@@H](CCCCN)C(=O)O [Vector] | < 4.60 | < 4.60 | < 4.60 | < 4.60 | < 4.60 | < 4.60 | < 4.60 | < 4.60 | < 4.60 | < 4.60 | < 4.60 | < 4.60 | < 4.60 | < 4.60 | – | –
2 | CC[C@H](C)[C@H](NC(=O)[C@H](CCCCN)NC(=O)[C@@H](NC(=O)[C@H](CCC(N)=O)NC(=O)[C@@H](N)CCCNC(=N)N)[C@@H](C)CC)C(=O)N[C@@H](Cc1c[nH]c2ccccc12)C(=O)N[C@@H](Cc1ccccc1)C(=O)N[C@@H](CCC(N)=O)C(=O)N[C@@H](CC(N)=O)C(=O)N[C@@H](CCCNC(=N)N)C(=O)N[C@@H](CCCNC(=N)N)C(=O)N[C@@H](CCSC)C(=O)N[C@@H](CCCCN)C(=O)N[C@@H](Cc1c[nH]c2ccccc12)C(=O)N[C@@H](CCCCN)C(=O)N[C@@H](CCCCN)C(=O)O [H-Arg-Gln-Ile-Lys-Ile-Trp-Phe-Gln-Asn-Arg-Arg-Met-Lys-Trp-Lys-Lys-OH] | – | – | – | – | – | – | – | – | – | – | – | – | – | – | 15mer resulting from C-terminal truncation of a Lys residue | 10 min
